Active and inactive are the calls of the source. The calls are words filed in the database; no cut-off is given here.
How the values were obtained:
[1] = target: G-protein coupled receptor 84 (Mus musculus) (UniProt Q8CIM5); experiment: Antagonist activity at mouse GPR84 expressed in HEK293 cells co-expressing Galpha16 assessed as inhibition of 6-OAU induced calcium response incubated for 10 mins by calcium mobilization assay; type: functional, cell-based; settings: filed as antagonist
[2] = target: Free fatty acid receptor 1 (Homo sapiens) (UniProt O14842); experiment: Antagonist activity at GPR40 (unknown origin) expressed in HEK293 cells co-expressing Galpha16 assessed as inhibition of TAK-875 induced calcium response upto 100 uM incubated for 10 mins by calcium mobilization assay; type: functional, cell-based
[3] = target: T1, Free fatty acid receptor 3 (Homo sapiens) (UniProt O14843); experiment: Antagonist activity at GPR41 (unknown origin) expressed in HEK293 cells co-expressing Galpha16 assessed as inhibition of sodium butyrate induced calcium response upto 100 uM incubated for 10 mins by calcium mobilization assay; type: functional, cell-based
T1 sequence (whole entry): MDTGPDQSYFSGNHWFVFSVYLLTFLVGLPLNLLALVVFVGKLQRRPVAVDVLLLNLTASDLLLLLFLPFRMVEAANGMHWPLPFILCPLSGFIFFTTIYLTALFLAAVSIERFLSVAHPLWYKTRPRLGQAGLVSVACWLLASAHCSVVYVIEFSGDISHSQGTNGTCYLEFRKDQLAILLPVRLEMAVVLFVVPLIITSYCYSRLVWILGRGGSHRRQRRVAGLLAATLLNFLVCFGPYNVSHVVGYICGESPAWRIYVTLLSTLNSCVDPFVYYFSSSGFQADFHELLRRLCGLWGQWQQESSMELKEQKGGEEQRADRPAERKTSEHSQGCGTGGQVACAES

Protein sequences, listed by entry. Tags and fused reporters are not part of them. Lines headed by an entry give the natural chain unless they say otherwise; changes in a name come on top.
UniProt Q8CIM5: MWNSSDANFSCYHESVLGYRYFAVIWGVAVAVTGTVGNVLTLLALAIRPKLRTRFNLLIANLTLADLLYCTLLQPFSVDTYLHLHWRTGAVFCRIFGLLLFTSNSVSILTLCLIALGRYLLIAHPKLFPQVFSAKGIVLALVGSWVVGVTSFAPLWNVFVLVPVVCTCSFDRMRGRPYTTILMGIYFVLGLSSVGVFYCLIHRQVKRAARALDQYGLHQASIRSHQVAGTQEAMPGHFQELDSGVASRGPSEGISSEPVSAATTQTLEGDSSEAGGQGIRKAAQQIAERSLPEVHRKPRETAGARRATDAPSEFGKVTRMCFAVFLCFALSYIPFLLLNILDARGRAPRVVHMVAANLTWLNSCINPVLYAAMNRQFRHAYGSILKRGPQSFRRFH
UniProt O14842, whole entry: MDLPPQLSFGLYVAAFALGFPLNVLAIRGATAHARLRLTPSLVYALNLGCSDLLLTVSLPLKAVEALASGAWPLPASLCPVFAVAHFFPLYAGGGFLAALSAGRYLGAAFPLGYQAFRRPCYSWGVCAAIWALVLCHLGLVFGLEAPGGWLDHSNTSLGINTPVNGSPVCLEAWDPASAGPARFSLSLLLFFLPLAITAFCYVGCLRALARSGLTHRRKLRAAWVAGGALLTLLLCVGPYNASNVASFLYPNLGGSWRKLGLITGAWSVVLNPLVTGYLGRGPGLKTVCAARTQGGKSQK
UniProt P41145: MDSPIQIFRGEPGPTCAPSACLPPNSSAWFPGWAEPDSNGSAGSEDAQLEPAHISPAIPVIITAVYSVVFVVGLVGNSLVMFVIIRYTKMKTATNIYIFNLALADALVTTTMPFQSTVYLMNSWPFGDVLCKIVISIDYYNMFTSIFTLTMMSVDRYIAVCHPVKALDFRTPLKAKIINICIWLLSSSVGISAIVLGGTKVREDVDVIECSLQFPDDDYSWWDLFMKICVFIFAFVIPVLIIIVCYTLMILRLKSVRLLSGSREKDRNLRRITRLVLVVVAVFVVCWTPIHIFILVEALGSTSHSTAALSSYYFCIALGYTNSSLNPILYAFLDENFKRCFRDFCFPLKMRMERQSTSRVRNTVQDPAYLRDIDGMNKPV
UniProt P41143, whole entry: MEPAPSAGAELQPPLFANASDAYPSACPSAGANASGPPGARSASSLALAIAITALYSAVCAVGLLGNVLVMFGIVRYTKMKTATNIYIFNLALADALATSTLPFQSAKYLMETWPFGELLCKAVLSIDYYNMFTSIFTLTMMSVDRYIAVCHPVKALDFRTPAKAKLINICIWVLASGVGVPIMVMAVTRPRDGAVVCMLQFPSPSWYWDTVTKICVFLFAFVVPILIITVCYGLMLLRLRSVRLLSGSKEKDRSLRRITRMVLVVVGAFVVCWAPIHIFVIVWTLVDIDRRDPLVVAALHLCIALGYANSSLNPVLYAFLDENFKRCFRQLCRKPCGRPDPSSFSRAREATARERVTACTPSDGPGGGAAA
UniProt P08588, whole entry, looked up: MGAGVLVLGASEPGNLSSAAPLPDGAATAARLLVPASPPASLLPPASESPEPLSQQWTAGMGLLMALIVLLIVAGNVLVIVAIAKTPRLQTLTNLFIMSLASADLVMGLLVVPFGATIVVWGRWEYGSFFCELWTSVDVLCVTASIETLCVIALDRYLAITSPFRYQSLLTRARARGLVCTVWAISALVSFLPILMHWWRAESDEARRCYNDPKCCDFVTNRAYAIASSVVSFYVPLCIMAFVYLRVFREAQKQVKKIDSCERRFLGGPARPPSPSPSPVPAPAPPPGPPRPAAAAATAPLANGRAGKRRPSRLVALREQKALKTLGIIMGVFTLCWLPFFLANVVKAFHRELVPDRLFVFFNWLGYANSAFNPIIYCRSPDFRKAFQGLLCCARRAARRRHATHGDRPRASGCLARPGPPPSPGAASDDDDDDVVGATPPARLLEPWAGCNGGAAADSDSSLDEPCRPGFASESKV
UniProt P13945: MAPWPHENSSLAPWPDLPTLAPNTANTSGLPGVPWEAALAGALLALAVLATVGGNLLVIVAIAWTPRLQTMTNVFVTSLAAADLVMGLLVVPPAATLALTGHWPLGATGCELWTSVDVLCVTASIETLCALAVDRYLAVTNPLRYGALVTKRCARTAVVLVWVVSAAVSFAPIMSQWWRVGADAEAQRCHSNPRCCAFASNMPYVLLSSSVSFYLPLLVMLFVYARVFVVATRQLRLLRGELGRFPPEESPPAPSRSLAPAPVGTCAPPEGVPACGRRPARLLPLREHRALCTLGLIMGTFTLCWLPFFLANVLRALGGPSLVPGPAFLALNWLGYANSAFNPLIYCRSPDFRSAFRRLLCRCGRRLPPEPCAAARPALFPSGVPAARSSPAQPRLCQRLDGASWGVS
UniProt P21728, whole entry: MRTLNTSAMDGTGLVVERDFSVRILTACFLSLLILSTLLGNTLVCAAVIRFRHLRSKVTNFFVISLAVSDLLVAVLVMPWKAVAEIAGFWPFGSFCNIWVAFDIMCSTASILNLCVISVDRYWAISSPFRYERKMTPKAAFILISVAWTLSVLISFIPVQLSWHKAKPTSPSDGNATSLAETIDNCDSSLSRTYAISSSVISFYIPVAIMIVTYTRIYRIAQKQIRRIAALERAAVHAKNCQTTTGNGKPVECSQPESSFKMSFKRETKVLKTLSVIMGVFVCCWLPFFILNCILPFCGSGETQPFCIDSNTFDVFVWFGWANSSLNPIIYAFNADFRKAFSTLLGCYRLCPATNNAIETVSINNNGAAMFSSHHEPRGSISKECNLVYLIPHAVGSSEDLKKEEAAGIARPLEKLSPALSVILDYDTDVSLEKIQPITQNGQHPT

[4] = target: T2, Glucose-dependent insulinotropic receptor (Homo sapiens) (UniProt Q8TDV5); experiment: Antagonist activity at GPR119 (unknown origin) expressed in HEK293 cells assessed as inhibition of AR231453 induced […] upto 100 uM pre-incubated for 10 mins followed by AR231453 addition and measured after 15 mins by cAMP detection assay; type: functional, cell-based; settings: time 25.0 min
T2 sequence (whole entry): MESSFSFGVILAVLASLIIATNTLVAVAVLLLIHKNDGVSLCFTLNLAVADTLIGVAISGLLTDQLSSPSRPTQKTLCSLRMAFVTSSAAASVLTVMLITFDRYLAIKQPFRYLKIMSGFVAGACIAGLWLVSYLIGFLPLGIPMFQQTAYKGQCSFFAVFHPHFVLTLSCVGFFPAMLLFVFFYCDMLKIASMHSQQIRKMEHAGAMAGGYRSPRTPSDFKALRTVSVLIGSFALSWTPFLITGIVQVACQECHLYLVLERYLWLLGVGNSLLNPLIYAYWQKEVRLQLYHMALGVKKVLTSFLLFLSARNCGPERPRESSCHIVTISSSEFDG

[5] = target: T3, Free fatty acid receptor 4 (Homo sapiens) (UniProt Q5NUL3); experiment: Antagonist activity at GPR120 (unknown origin) expressed in HEK293 cells co-expressing Galpha16 assessed as inhibition of TUG-981 induced calcium response upto 100 uM incubated for 10 mins by calcium mobilization assay; type: functional, cell-based
T3 sequence (whole entry): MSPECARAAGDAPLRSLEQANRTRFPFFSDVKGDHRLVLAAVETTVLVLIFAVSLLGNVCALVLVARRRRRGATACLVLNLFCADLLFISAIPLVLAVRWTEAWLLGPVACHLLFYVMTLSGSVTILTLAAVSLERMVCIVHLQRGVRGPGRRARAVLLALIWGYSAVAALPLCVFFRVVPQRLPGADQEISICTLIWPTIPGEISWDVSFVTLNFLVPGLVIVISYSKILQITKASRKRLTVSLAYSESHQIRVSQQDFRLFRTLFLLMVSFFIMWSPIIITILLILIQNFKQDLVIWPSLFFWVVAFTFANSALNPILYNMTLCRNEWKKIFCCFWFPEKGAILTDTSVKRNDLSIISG

[6] = target: Kappa-type opioid receptor (Homo sapiens) (UniProt P41145); experiment: Antagonist activity at KOR (unknown origin) expressed in HEK293 cells co-expressing Galpha16 assessed as inhibition of U50488 induced calcium response upto 100 uM incubated for 10 mins by calcium mobilization assay; type: functional, cell-based
[7] = target: Delta-type opioid receptor (Homo sapiens) (UniProt P41143); experiment: Antagonist activity at DOR (unknown origin) expressed in CHO-K1 cells co-expressing Galpha16 assessed as inhibition of DPDPE induced calcium response upto 100 uM incubated for 10 mins by calcium mobilization assay; type: functional, cell-based
[8] = target: T4, Alpha-1A adrenergic receptor (Homo sapiens) (UniProt P35348); experiment: Antagonist activity at ARalpha1A (unknown origin) expressed in HEK293 cells co-expressing Galpha16 assessed as inhibition of Phenylephrine induced calcium response upto 100 uM incubated for 10 mins by calcium mobilization assay; type: functional, cell-based
T4 sequence (whole entry): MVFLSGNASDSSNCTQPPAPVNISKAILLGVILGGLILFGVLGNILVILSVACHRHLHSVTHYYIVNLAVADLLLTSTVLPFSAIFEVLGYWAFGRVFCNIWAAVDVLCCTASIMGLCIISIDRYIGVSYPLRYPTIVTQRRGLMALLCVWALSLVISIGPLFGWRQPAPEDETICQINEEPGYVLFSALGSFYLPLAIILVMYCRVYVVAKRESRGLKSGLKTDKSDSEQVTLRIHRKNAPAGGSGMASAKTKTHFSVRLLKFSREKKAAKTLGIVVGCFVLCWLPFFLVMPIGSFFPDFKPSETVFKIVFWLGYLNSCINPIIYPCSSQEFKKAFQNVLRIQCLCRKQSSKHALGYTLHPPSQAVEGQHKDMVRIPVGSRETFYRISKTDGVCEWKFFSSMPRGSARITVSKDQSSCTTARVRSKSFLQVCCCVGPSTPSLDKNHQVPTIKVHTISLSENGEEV

[9] = target: Beta-1 adrenergic receptor (Homo sapiens) (UniProt P08588); experiment: Antagonist activity at ARbeta1 (unknown origin) expressed in HEK293 cells co-expressing Galpha16 assessed as inhibition of Isoproterenol induced calcium response upto 100 uM incubated for 10 mins by calcium mobilization assay; type: functional, cell-based
[10] = target: Beta-2 adrenergic receptor (Homo sapiens) (UniProt P07550); experiment: Antagonist activity at ARbeta2 (unknown origin) expressed in HEK293 cells co-expressing Galpha16 assessed as inhibition of Isoproterenol induced calcium response upto 100 uM incubated for 10 mins by calcium mobilization assay; type: functional, cell-based
[11] = target: Beta-3 adrenergic receptor (Homo sapiens) (UniProt P13945); experiment: Antagonist activity at ARbeta3 (unknown origin) expressed in HEK293 cells co-expressing Galpha16 assessed as inhibition of Isoproterenol induced calcium response upto 100 uM incubated for 10 mins by calcium mobilization assay; type: functional, cell-based
[12] = target: D(1A) dopamine receptor (Homo sapiens) (UniProt P21728); experiment: Antagonist activity at DRD1 (unknown origin) expressed in HEK293 cells co-expressing Galpha16 assessed as inhibition of dopamine induced calcium response upto 100 uM incubated for 10 mins by calcium mobilization assay; type: functional, cell-based
[13] = target: G-protein coupled receptor 84 (Mus musculus) (UniProt Q8CIM5); settings: HEK293, filed as antagonist, dose 30-300 nM, time 10.0 min
[14] = target: G-protein coupled receptor 84 (Mus musculus) (UniProt Q8CIM5); settings: HEK293, filed as antagonist, dose 30-300 nM, time 10.0 min; remark: listed apart in the source

Structure (SMILES)	inhibition [1]	inhibition [2]	inhibition [3]	inhibition [4]	inhibition [5]	inhibition [6]	inhibition [7]	inhibition [8]	inhibition [9]	inhibition [10]	inhibition [11]	inhibition [12]	inhibition [13]	inhibition [14]
COc1cccc2c1Sc1ccccc1C=C2OP(=O)(O)O[C@@H]1C(C)(C)[C@@H]2CC[C@@]1(C)C2	Active	inactive	inactive	inactive	inactive	inactive	inactive	inactive	inactive	inactive	inactive	inactive	Dose-Dependent Effect	Dose-Dependent Effect
O=c1nc(OC[C@@H]2COCCO2)cc2n1CCc1cc(C#CC3CC3)ccc1-2	Active	–	–	–	–	–	–	–	–	–	–	–	–	–

Reference: ChEMBL document CHEMBL5380862, “Unsymmetrical Phosphodiesters as GPR84 Antagonists with High Blood Exposure for the Treatment of Lung Inflammation” (J Med Chem, 2023)
